Values of other authors as cited in patent publication US20250134912A1, “COMPOSITIONS COMPRISING COCRYSTALS OF […] ACID AND THEANINE WITH TROMETHAMINE AND METHODS OF USE” (Theaprin Pharmaceuticals, Inc., priority 2021, published 2025).

Target: SARS-COV-2 protease Mpro (Severe acute respiratory syndrome coronavirus 2, UniProt P0DTD1)
Conditions: identified via virtual screening and bioassay validation

OCCN(CCO)c1nc(N2CCCCC2)c2nc(N(CCO)CCO)nc(N3CCCCC3)c2n1 [dipyridamole, 2,6 bis-(diethanolamino)-4,8 dipiperidino-pyrimido-(5,4-d)pyrimidine]
binding to SARS-COV-2 protease Mpro: bound
